Among the data in BindingDB's records for doi:10.1038/350610a0 (University of Toronto, 1991) are Ki values, retold here.

The chains behind the UniProt entries cited, without tags or fusion partners.
UniProt Q589Y6, whole entry: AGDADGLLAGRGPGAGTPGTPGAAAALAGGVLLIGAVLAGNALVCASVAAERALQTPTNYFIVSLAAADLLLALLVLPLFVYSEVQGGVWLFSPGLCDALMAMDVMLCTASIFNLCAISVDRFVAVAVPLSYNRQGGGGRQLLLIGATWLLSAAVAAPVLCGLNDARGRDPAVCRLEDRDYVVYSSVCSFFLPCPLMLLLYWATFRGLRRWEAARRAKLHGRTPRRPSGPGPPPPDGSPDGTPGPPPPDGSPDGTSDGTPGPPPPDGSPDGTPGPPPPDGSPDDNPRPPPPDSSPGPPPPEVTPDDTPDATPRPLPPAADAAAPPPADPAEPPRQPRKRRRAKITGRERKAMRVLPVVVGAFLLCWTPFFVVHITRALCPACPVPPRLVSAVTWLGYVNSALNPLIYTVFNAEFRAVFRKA

The target of this experiment is Dopamine receptor D4 (Canis lupus familiaris, UniProt Q589Y6).

“And” between values parts separate entries of the source, which are not always exact repeats. Equal values may be shown once.

As a reminder, the Ki is the equilibrium dissociation constant of an inhibitor or competing ligand from its target. A higher Ki goes with weaker binding. For `CN1CCN([C@@H]2Cc3ccccc3Sc3ccc(Cl)cc32)CC1`, the Ki is 13.5 nM and 1.6 nM.
